Some tests of the compounds listed are not included; inactive here does not mean inactive elsewhere.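 Each compound was tested at five concentrations against cells in 96-well plates for 48 hours. The concentration for 50% growth inhibition is given as GI50. Definition used: TGI = concentration required for complete inhibition of growth.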
Experiments:
Experiment in all cases: NCI anticancer screen, dose series, 48 h
[1] = tested on: EKVX NSCLC
[2] = tested on: UACC-257 melanoma
[3] = tested on: HL-60(TB) leukemia
[4] = tested on: SF-539 CNS
[5] = tested on: COLO 205 colon
[6] = tested on: PC-3 prostate
[7] = tested on: MDA-MB-231 breast
[8] = tested on: KM12 colon
[9] = tested on: HT29 colon
[10] = tested on: SK-OV-3 ovarian
[11] = tested on: SR leukemia
[12] = tested on: HOP-62 NSCLC
[13] = tested on: DU-145 prostate
[14] = tested on: LOX IMVI melanoma
[15] = tested on: CAKI-1 renal
[16] = tested on: HCC-2998 colon
[17] = tested on: SF-268 CNS
[18] = tested on: SN12C renal
[19] = tested on: U251 CNS
[20] = tested on: NCI-H23 lung
[21] = tested on: T-47D breast
[22] = tested on: SNB-75 CNS
[23] = tested on: RPMI-8226 leukemia
[24] = tested on: CCRF-CEM leukemia
[25] = tested on: SW-620 colon
[26] = tested on: SK-MEL-28 melanoma
[27] = tested on: IGROV1 ovarian
[28] = tested on: ACHN renal
[29] = tested on: SK-MEL-5 melanoma
[30] = tested on: SNB-19 CNS
[31] = tested on: K-562 leukemia
[32] = tested on: MCF7 breast
[33] = tested on: 786-0 renal
[34] = tested on: M14 melanoma
[35] = tested on: MDA-N
[36] = tested on: HCT-116 colon
[37] = tested on: UO-31 renal
[38] = tested on: MALME-3M melanoma
[39] = tested on: A549 NSCLC
[40] = tested on: UACC-62 melanoma
[41] = tested on: NCI/ADR-RES ovarian
[42] = tested on: TK-10 renal
[43] = tested on: OVCAR-5 ovarian
[44] = tested on: OVCAR-3 ovarian
[45] = tested on: RXF 393 renal
[46] = tested on: NCI-H522 lung
[47] = tested on: NCI-H226 lung
[48] = tested on: HCT-15 colon
[49] = tested on: OVCAR-8 ovarian
[50] = tested on: SF-295 CNS
[51] = tested on: OVCAR-4 ovarian
[52] = tested on: BT-549 breast
[53] = tested on: NCI-H460 lung
[54] = tested on: MDA-MB-435
[55] = tested on: MOLT-4 leukemia
[56] = tested on: HS 578T breast
[57] = tested on: SK-MEL-2 melanoma
[58] = tested on: HOP-92 NSCLC
[59] = tested on: A498 renal

Structure (SMILES): CN1CCC(OC(=O)C(O)(c2ccccc2)c2ccns2)CC1 (stereo unspecified)
- TGI [1]: > 100 µM
- TGI [2]: > 100 µM
- TGI [3]: > 100 µM
- TGI [4]: > 100 µM
- TGI [5]: > 100 µM
- TGI [6]: > 100 µM
- TGI [7]: > 100 µM
- TGI [8]: > 100 µM
- TGI [9]: > 100 µM
- TGI [10]: > 100 µM
- TGI [11]: > 100 µM
- TGI [12]: > 100 µM
- TGI [13]: > 100 µM
- TGI [14]: > 100 µM
- TGI [15]: > 100 µM
- TGI [16]: > 100 µM
- TGI [17]: > 100 µM
- TGI [18]: > 100 µM
- TGI [19]: > 100 µM
- TGI [20]: > 100 µM
- TGI [21]: > 100 µM
- TGI [22]: > 100 µM
- TGI [23]: > 100 µM
- TGI [24]: > 100 µM
- TGI [25]: > 100 µM
- TGI [26]: > 100 µM
- TGI [27]: > 100 µM
- TGI [28]: > 100 µM
- TGI [29]: > 100 µM
- TGI [30]: > 100 µM
- TGI [31]: > 100 µM
- TGI [32]: > 100 µM
- TGI [33]: > 100 µM
- TGI [34]: > 100 µM
- TGI [35]: > 100 µM
- TGI [36]: > 100 µM
- TGI [37]: > 100 µM
- TGI [38]: > 100 µM
- TGI [39]: > 100 µM
- TGI [40]: > 100 µM
- TGI [41]: > 100 µM
- TGI [42]: > 100 µM
- TGI [43]: > 100 µM
- TGI [44]: > 100 µM
- TGI [45]: > 100 µM
- TGI [46]: > 100 µM
- TGI [47]: > 100 µM
- TGI [48]: > 100 µM
- TGI [49]: > 100 µM
- TGI [50]: > 100 µM

Structure (SMILES): CC(C)/C=C\C(O)(C(=O)OC1CN2CCC1CC2)C1CCCC1 (stereo unspecified)
- GI50 [1]: > 100 µM
- TGI [1]: > 100 µM
- GI50 [2]: 66.6 µM
- TGI [2]: > 100 µM
- GI50 [51]: > 100 µM
- TGI [51]: > 100 µM
- GI50 [3]: > 100 µM
- TGI [3]: > 100 µM
- GI50 [4]: > 100 µM
- TGI [4]: > 100 µM
- GI50 [5]: 80.2 µM
- TGI [5]: > 100 µM
- GI50 [6]: 85 µM
- TGI [6]: > 100 µM
- GI50 [7]: > 100 µM
- TGI [7]: > 100 µM
- GI50 [8]: > 100 µM
- TGI [8]: > 100 µM
- GI50 [9]: 45 µM
- TGI [9]: > 100 µM
- GI50 [10]: > 100 µM
- TGI [10]: > 100 µM
- GI50 [11]: > 100 µM
- TGI [11]: > 100 µM
- GI50 [12]: > 100 µM
- TGI [12]: > 100 µM
- GI50 [13]: > 100 µM
- TGI [13]: > 100 µM
- GI50 [14]: > 100 µM
- TGI [14]: > 100 µM
- GI50 [15]: > 100 µM
- TGI [15]: > 100 µM
- GI50 [16]: 83.3 µM
- TGI [16]: > 100 µM
- GI50 [52]: > 100 µM
- TGI [52]: > 100 µM
- GI50 [17]: > 100 µM
- TGI [17]: > 100 µM
- GI50 [18]: > 100 µM
- TGI [18]: > 100 µM
- GI50 [19]: > 100 µM
- TGI [19]: > 100 µM
- GI50 [20]: > 100 µM
- TGI [20]: > 100 µM
- GI50 [21]: > 100 µM
- TGI [21]: > 100 µM
- GI50 [22]: 40.1 µM
- TGI [22]: > 100 µM
- GI50 [23]: > 100 µM
- TGI [23]: > 100 µM
- GI50 [24]: > 100 µM
- TGI [24]: > 100 µM
- GI50 [25]: > 100 µM
- TGI [25]: > 100 µM
- GI50 [26]: > 100 µM
- TGI [26]: > 100 µM
- GI50 [53]: > 100 µM
- TGI [53]: > 100 µM
- GI50 [54]: > 100 µM
- TGI [54]: > 100 µM
- GI50 [27]: > 100 µM
- TGI [27]: > 100 µM
- GI50 [28]: > 100 µM
- TGI [28]: > 100 µM
- GI50 [29]: 84.1 µM
- TGI [29]: > 100 µM
- GI50 [30]: > 100 µM
- TGI [30]: > 100 µM
- GI50 [55]: > 100 µM
- TGI [55]: > 100 µM
- GI50 [31]: 59.4 µM
- TGI [31]: > 100 µM
- GI50 [32]: > 100 µM
- TGI [32]: > 100 µM
- GI50 [33]: > 100 µM
- TGI [33]: > 100 µM
- GI50 [34]: > 100 µM
- TGI [34]: > 100 µM
- GI50 [35]: > 100 µM
- TGI [35]: > 100 µM
- GI50 [36]: > 100 µM
- TGI [36]: > 100 µM
- GI50 [37]: 78.1 µM
- TGI [37]: > 100 µM
- GI50 [56]: > 100 µM
- TGI [56]: > 100 µM
- GI50 [38]: > 100 µM
- TGI [38]: > 100 µM
- GI50 [39]: > 100 µM
- TGI [39]: > 100 µM
- GI50 [40]: 76 µM
- TGI [40]: > 100 µM
- GI50 [57]: > 100 µM
- TGI [57]: > 100 µM
- GI50 [41]: > 100 µM
- TGI [41]: > 100 µM
- GI50 [58]: > 100 µM
- TGI [58]: > 100 µM
- GI50 [42]: > 100 µM
- TGI [42]: > 100 µM
- GI50 [43]: > 100 µM
- TGI [43]: > 100 µM
- GI50 [44]: > 100 µM
- TGI [44]: > 100 µM
- GI50 [45]: > 100 µM
- TGI [45]: > 100 µM
- GI50 [47]: > 100 µM
- TGI [47]: > 100 µM
- GI50 [48]: > 100 µM
- TGI [48]: > 100 µM
- GI50 [49]: > 100 µM
- TGI [49]: > 100 µM
- GI50 [59]: > 100 µM
- TGI [59]: > 100 µM
- GI50 [50]: 62.2 µM
- TGI [50]: > 100 µM
